Compounds with a hit are over-represented: about 1% of the library has one in this group of screens.
Cneo AK release: Cryptococcus neoformans lysis via adenylate kinase release; C. neoformans lysis, adenylate kinase release luminescence, 4 h; normalised: neutral wells 0, clomiphene wells 100; lysis activity, % at 15 µM; hit rate 0.2% among 360,000; AID 651654;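 active = mean lysis activity across replicates of at least 80%, whatever share of replicates individually reach that level; inactive = mean lysis activity below 80%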
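Material: C. neoformans cells | Amount: Yeast cell density of 5 × 10^6 cells/mL | Medium: Fresh YPD growth medium | Dosing: Single dose | Times: Static 4 h at 37 °C with compound, 1 h detection | Detection: AK luminescence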
Rtt109 HAT inh: blocks Candida albicans Rtt109/Vps75 acetyltransferase activity. purified Rtt109/Vps75, ThioGlo CoA-SH fluorescence, 4 h. hit rate 0.16% among 330,000. Q5AAJ8. inhibition, % at 34.9 µM;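 active = inhibition of at least 50% in every replicate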
CDK5 p35 inh: inhibitors of human CDK5/p35 kinase. Recombinant CDK5/p35, ADP-Glo luminescence, 60 min. hit rate 0.01% among 330,000. AID 488839. inhibition, % at 10 µM. Q00535+Q15078;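 active = highest replicate inhibition of at least 50% and at least 75% of replicates reaching 50%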;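 also: plate controls were DMSO neutral control for no effect and GW8510 at 10 µM for full effect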
UUG fidelity: modulators of start codon recognition fidelity in yeast; AID 602363; activity score, % at 18.7 µM; S. cerevisiae UUG-firefly luciferase reporter, luminescence/redox ratio; actives 0.13% (n = 350,000);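 active = replicate mean at a twofold rise or more, about +100% in these data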;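 note: firefly luciferase made from a UUG start codon reports start codon fidelity; reporter light over untreated wells divided by growth signal over untreated wells; some hits fall short of that in this replicate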
Statin myotox sup: suppression of simvastatin myotoxicity; C2C12 myotubes + simvastatin, ATP luminescence, 48 h; scaled: DMSO 0, geranylgeraniol control 100; rescue of ATP level, % at 7.49 µM; hit rate 0.78% among 330,000; AID 602340;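 active = mean ATP rescue above about 67%, or every replicate alone reaching that limit, limit read from the data, passing the limit was not always enough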;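 also: myotubes were challenged with 10 µM simvastatin during compound exposure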
* marks the source's active call; other numbers are inactive results; / = not tested or not shown; ! = a repeat was not active.

Letter code – A = Cneo AK release; B = Rtt109 HAT inh; C = CDK5 p35 inh; D = UUG fidelity; E = Statin myotox sup
(1) Cc1ccc(S(=O)(=O)N(C)C[C@H]2Oc3c(NS(=O)(=O)c4cn(C)cn4)cccc3C(=O)N([C@H](C)CO)C[C@@H]2C)cc1
  A: /	B: /	C: /	D: /	E: 6.4
(2) O=C(Oc1ccc2c(c1)OCC2=O)c1ccc(Cl)cc1
  A: 1.6	B: 2.6	C: 1.6	D: -1.0	E: -9.0
(3) O=C(Oc1ccc2c(c1)C(=O)c1ccccc1CO2)c1ccccc1
  A: -1.0	B: -3.1	C: -0.4	D: -18.3	E: 107.3*
(4) CCCN(C)C[C@@H]1Oc2cc(C#C[C@@H](C)O)ccc2S(=O)(=O)N([C@@H](C)CO)C[C@@H]1C
  A: 1.8	B: /	C: /	D: 5.6	E: 2.3
(5) C=CCc1ccccc1OCCCCN1CCCC1
  A: 2.0	B: -13.9	C: 1.3	D: -14.1	E: 80.2*
(6) CO[C@H]1CN(C)C(=O)c2cc(NC(=O)C3CC3)ccc2OC[C@@H](C)N(C(=O)C2CCCCC2)C[C@H]1C
  A: -6.9	B: /	C: /	D: 8.6	E: 10.3
(7) CCCN1C[C@H](C)[C@@H](OC)CN(C)C(=O)c2cc(NC(=O)c3cccc(F)c3)ccc2OC[C@@H]1C
  A: 116.6*	B: /	C: /	D: 22.7	E: -21.9
(8) CO[C@H]1CN(C)C(=O)c2cc(NS(=O)(=O)c3ccc(C)cc3)ccc2OC[C@H](C)N(C)C[C@H]1C
  A: 115.7*	B: /	C: /	D: 12.1	E: -10.0
(9) CO[C@H]1CN(C)C(=O)c2cc(NC(=O)c3ccccc3F)ccc2OC[C@H](C)N(C(C)=O)C[C@H]1C
  A: 95.2*	B: /	C: /	D: /	E: -2.1
(10) CO[C@@H]1CN(C)C(=O)c2cc(NC(=O)c3ccccc3F)ccc2OC[C@@H](C)N(C(C)=O)C[C@H]1C
  A: 48.8	B: /	C: /	D: /	E: 2.5
(11) CO[C@H]1CN(C)C(=O)c2cc(NC(=O)c3ccccc3F)ccc2OC[C@H](C)N(CC2CCOCC2)C[C@H]1C
  A: 97.8*	B: /	C: /	D: /	E: -9.2
(12) Cc1noc(C)c1S(=O)(=O)N(C)C[C@H]1OCCCC[C@@H](C)Oc2ccc(NC(=O)NC3CCCCC3)cc2C(=O)N([C@H](C)CO)C[C@@H]1C
  A: 1.0	B: /	C: /	D: -11.0	E: /
(13) CCCN1[C@@H]2c3ccc(-c4ccccc4)c(=O)n3C[C@@H]2[C@@H](CO)[C@@H]1C(=O)N1CCOCC1
  A: -2.8	B: /	C: /	D: /	E: -15.8
(14) C[C@@H]1CCCCO[C@@H](CN(C)S(C)(=O)=O)[C@H](C)CN([C@H](C)CO)C(=O)c2cc(NC(=O)Cc3ccccc3)ccc2O1
  A: -5.8	B: /	C: /	D: 3.7	E: -11.6
(15) C[C@@H](NC(=O)C[C@@H]1C[C@H]2c3cc(NC(=O)CN(C)C)ccc3O[C@H]2[C@@H](CO)O1)c1ccccc1
  A: -0.9	B: /	C: /	D: 5.1	E: -0.6
(16) COc1ccccc1C(=O)Nc1ccc2c(c1)OC[C@H](C)N(C(C)=O)C[C@@H](C)[C@H](OC)CN(C)C2=O
  A: -0.5	B: /	C: /	D: /	E: -12.7
(17) CO[C@H]1CN(C)C(=O)c2cc(NC(=O)c3ccc4c(c3)OCO4)ccc2OC[C@@H](C)N(CC2CC2)C[C@H]1C
  A: 90.3*	B: /	C: /	D: /	E: -1.8
(18) COc1ccccc1C(=O)Nc1ccc2c(c1)OC[C@H](C)N(C(C)=O)C[C@H](C)[C@H](OC)CN(C)C2=O
  A: 101.0*	B: /	C: /	D: /	E: 1.3
(19) COc1ccccc1OCCNC1CCCC1
  A: 3.6	B: -12.8	C: -0.1	D: -17.2	E: 160.1*
(20) CCC(C)c1ccccc1OCCCNC1CCCC1 (configuration not stated)
  A: 1.4	B: 0.7	C: 0.5	D: -5.7	E: 0.7
(21) O=C(C[C@@H]1CC[C@H](NC(=O)C2CC2)[C@@H](CO)O1)NC1CCC1
  A: -1.7	B: /	C: /	D: -18.4	E: -3.2
(22) CC(C)(C)[S@](=O)N1Cc2cc(C(=O)NCc3ccccc3F)nc(-c3cccc(-c4cccnc4)c3)c2[C@@H]1CCO
  A: 5.8	B: /	C: /	D: /	E: -0.8
(23) COc1ccc(OC)c(Nc2nc(=O)c3cccnc3s2)c1
  A: /	B: 112.3*	C: 2.3	D: /	E: -4.0
(24) Cc1ccc(Nc2nc(=O)c3cccnc3s2)cc1
  A: -1.5	B: 0.4	C: -1.6	D: -5.3	E: -9.9
(25) CCSc1nnc(-c2cccnc2)n1-c1ccc(Cl)c(C)c1
  A: -2.6	B: 3.7	C: -0.4	D: -10.9	E: 111.2*

Pulled by compound from the list above (3):
Letter code – A = Cneo AK release; B = Rtt109 HAT inh; C = CDK5 p35 inh; D = UUG fidelity; E = Statin myotox sup
(11) CO[C@H]1CN(C)C(=O)c2cc(NC(=O)c3ccccc3F)ccc2OC[C@H](C)N(CC2CCOCC2)C[C@H]1C
  A: 97.8*	B: /	C: /	D: /	E: -9.2
(20) CCC(C)c1ccccc1OCCCNC1CCCC1 (configuration not stated)
  A: 1.4	B: 0.7	C: 0.5	D: -5.7	E: 0.7
(2) O=C(Oc1ccc2c(c1)OCC2=O)c1ccc(Cl)cc1
  A: 1.6	B: 2.6	C: 1.6	D: -1.0	E: -9.0

Remaining list, next part
Letter code – A = Cneo AK release; B = Rtt109 HAT inh; C = CDK5 p35 inh; D = UUG fidelity; E = Statin myotox sup
(26) C[C@H](CO)N1C[C@H](C)[C@H](CN(C)C(=O)Cc2ccncc2)Oc2ncc(C#CC3(O)CCCC3)cc2C1=O
  A: 3.3	B: /	C: /	D: -5.3	E: 9.7
(27) O=C(Nc1ccccc1Cl)NC1(C(=O)N2CCCC2)CCCCC1
  A: -1.5	B: -3.5	C: 2.7	D: -12.3	E: 12.6
(28) O=C(Nc1ccccc1Cl)NC1(C(=O)N2CCCCC2)CCCCC1
  A: -6.4	B: 2.4	C: 0.6	D: -10.8	E: 101.1*
(29) CC1(C)OC2OC(C(=O)N/N=C/c3ccccc3F)C3OC(C)(C)OC3C2O1 (configuration not stated)
  A: 0.2	B: -1.6	C: -0.2	D: -6.9	E: 103.5*
(30) CC1(C)C(C=C(Cl)Cl)C1C(=O)N/N=C/c1ccccc1F (configuration not stated)
  A: -0.7	B: 5.9	C: -5.8	D: -27.8	E: -2.3
(31) CSc1cccc(NC(=O)C2CCCN(S(=O)(=O)c3ccc(F)cc3)C2)c1 (configuration not stated)
  A: -0.2	B: 0.8	C: 0.6	D: 4.5	E: /
(32) O=C(Nc1cccc(Cl)c1)C1CCCN(S(=O)(=O)c2ccc(F)cc2)C1 (configuration not stated)
  A: -1.5	B: 13.2	C: -0.7	D: 13.5	E: 125.2*
(33) C[C@@H]1CN([C@H](C)CO)C(=O)c2cc(NC(=O)CCC(F)(F)F)ccc2O[C@@H](C)CCCCO[C@@H]1CN(C)C
  A: 0.0	B: /	C: /	D: 8.8	E: -18.7
(34) O=C(CN1CCOCC1)N1CCN(c2nnc(-c3ccccc3)c3ccccc23)CC1
  A: 1.2	B: -1.5	C: -2.4	D: -25.8	E: 114.5*
(35) Cc1ccc(-c2nnc(N3CCN(C(=O)CN4CCOCC4)CC3)c3ccccc23)cc1
  A: -0.3	B: /	C: -0.6	D: -16.2	E: -7.2
(36) CN1CCc2cccc3c2[C@H]1Cc1ccc(O)c(O)c1-3
  A: -1.1	B: 100.3*!	C: 4.2	D: -28.1	E: -15.4
(37) CN1CCc2cc3c(c4c2[C@H]1[C@H](O)c1ccccc1-4)OCO3
  A: 0.4	B: -27.3	C: 0.3	D: -17.6	E: 8.8
(38) Oc1ccccc1CNc1cnc2ccccc2c1
  A: -0.6	B: 56.7*	C: 8.4	D: -5.6	E: 25.5
(39) Oc1ccc(Cl)cc1CNc1cnc2ccccc2c1
  A: -0.5	B: -3.2	C: -2.1	D: -2.7	E: -4.7
(40) O=C1CC(SC(=Nc2ccccc2)Nc2ccccc2)C(=O)N1c1cccc2ccccc12 (configuration not stated)
  A: 1.3	B: 5.3	C: -0.6	D: 3.6	E: 120.2*
(41) COCC#Cc1ccc2c(c1)O[C@@H](CN(C)C(=O)CN(C)C)[C@@H](C)CN([C@@H](C)CO)S2(=O)=O
  A: 3.1	B: /	C: /	D: -5.8	E: -12.3
(42) Cc1cc(C)c(C)c(S(=O)(=O)NCC(=O)N2CCCC2)c1C
  A: -1.5	B: -1.6	C: 1.7	D: -6.1	E: 115.1*
(43) O=C1C/C(=C/NCc2ccccc2)C(=O)N1
  A: -3.9	B: -8.5	C: 0.5	D: -10.0	E: 95.2*
(44) CC(Cc1ccccc1)N/C=C1/CC(=O)NC1=O (configuration not stated)
  A: -0.6	B: 1.6	C: -0.2	D: -16.0	E: 6.7
(45) CCCN1[C@@H]2c3ccc(-c4ccc(OC)cc4)c(=O)n3C[C@@H]2[C@@H](CO)[C@@H]1C(=O)NCC
  A: -1.2	B: /	C: /	D: /	E: 8.6
(46) Cc1ccc(S(=O)(=O)N(C)C[C@H]2Oc3c(NC(=O)Nc4ccc(C(F)(F)F)cc4)cccc3C(=O)N([C@H](C)CO)C[C@H]2C)cc1
  A: -0.4	B: /	C: /	D: 3.6	E: 6.2
